Molecular target: T1, human IsK protein (UniProt P15382+P70057)
T1 construct: channel formed with endogenous oocyte KCNQ1; two-microelectrode voltage clamp
Assay: cell-based

Sequences of proteins named here, by UniProt entry; tags and fusion partners are left off. A change or cut given only in a name is not applied to a line headed by its entry.
UniProt P70057: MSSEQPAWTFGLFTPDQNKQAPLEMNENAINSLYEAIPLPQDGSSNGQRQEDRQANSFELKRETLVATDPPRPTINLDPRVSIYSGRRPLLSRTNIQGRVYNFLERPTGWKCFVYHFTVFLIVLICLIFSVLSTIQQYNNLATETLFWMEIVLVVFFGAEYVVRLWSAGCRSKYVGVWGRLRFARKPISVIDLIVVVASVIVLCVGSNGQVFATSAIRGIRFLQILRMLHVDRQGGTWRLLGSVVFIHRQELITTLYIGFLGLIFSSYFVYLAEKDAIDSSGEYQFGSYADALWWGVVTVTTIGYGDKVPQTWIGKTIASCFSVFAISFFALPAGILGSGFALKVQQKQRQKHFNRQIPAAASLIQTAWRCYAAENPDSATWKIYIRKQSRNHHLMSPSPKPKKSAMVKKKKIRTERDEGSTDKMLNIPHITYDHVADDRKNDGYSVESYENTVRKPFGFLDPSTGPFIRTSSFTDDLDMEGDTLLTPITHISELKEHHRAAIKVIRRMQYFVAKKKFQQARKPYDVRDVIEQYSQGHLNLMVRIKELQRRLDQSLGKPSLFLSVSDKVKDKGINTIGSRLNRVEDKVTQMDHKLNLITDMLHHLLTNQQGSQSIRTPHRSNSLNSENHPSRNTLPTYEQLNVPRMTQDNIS

IC50: < 100 nM
SMILES: CCS(=O)(=O)N(CC(=O)NCCc1ccc(F)cc1)C1CC(C)(C)Oc2ccc(F)cc21 (stereo not shown) [Example 59, 2-[Ethanesulfonyl-(6-fluoro-2,2-dimethyl-chroman-4-yl)-amino]-N-[2-(4-fluoro-phenyl)-ethyl]-acetamide]
